Assay results taken from patent US20170143748A1, “ANTI-TUMOR PHARMACEUTICAL APPLICATION OF PENTACYCLIC TRITERPENE SAPONIN COMPOUNDS OF SZECHUAN MELANDIUM ROOT” (priority 2014, published 2017).

Test system: BGC823 human gastric adenocarcinoma
Experiment: Anti-BGC823 human gastric adenocarcinoma in BALB/c (nu/nu) nude mice
Format: in vivo
Conditions: 1 W; mg/kg BW: total saponins 1.5, Compound 1, combination 1 & 19, 5-FU 20; Sc; in g (unit assumed)
Procedure: Human resources gastric adenocarcinoma cell line BGC823 was cultured in the same condition as the experiment 4.
The body weight and the tumor volume were measured and recorded weekly. The tumor volume was calculated according to the formula below.
Tumors were departed and weighed. Tumor Index and inhibition rate were calculated as below: […]
Wacao total saponins group, Compound (1), (2) and 5-FU were respectively dissolved into sterile water, sterilized with filtration. Compound (1)+5-FU, Compound (2)+5-FU were prepared as 1:19 respectively, sterilized with filtration.

With `COC(=O)C1CC(O[C@H]2CC[C@]3(C)[C@H]4C=CC5[C@@H]6CC(C)(C)CC[C@]6(C(=O)OC6OC(C)C(OC(=O)/C=C/c7ccc(C)cc7)C(OC(C)=O)C6OC6CC(C)C(O)C(O)C6O)[C@H](O)C[C@@]5(C)[C@]4(C)CC[C@H]3[C@]2(C)C=O)C(OC2OC(CO)C(O)C(O)C2O)C(OC2OCC(O)C(O)C2O)C1O` (stereo partly shown) [Compound (2), sinocrassuloside VII] the “body weight of BGC823-bearing nude mice” value was 21.90 ± 0.88.
